{"sequences": {"note": "By UniProt entry, the sequences of proteins in these tests, tags left out.", "UniProt P33535, whole entry": "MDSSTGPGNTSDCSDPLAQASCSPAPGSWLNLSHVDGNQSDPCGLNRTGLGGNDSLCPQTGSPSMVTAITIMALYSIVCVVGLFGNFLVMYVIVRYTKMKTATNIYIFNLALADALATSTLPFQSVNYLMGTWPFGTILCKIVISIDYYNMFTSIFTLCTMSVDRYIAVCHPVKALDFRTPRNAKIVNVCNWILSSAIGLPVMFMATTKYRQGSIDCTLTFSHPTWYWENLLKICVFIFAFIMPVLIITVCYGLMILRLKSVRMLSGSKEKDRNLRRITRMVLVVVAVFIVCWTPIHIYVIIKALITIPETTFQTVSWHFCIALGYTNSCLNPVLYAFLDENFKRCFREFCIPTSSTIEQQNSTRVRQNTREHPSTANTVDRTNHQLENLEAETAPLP"}, "source": "patent US8614324B2", "about": "“Filamin A binding anti-inflammatory and analgesic” (priority 2008, dated 2013)", "molecular_target": "T1, mu opiate receptor (MOR) (Rattus norvegicus, UniProt P33535)", "T1 construct": "from tissue; host or cells: striatal membrane preparation (rat striatum)", "experiment": "MOR agonist activity, [35S]GTPγS binding assay using striatal membranes", "assay_type": "biochemical", "parameters": "reference not given here", "description": "To assess the mu opiate receptor (MOR) agonist activity of positive compounds from the FLNA screening, compounds were tested in a [^35S]GTPγS binding assay using striatal membranes. Our previous study has shown that in striatal membranes, activation of MOR leads to an increase in [^35S]GTPγS binding to Gαo (Wang et al., 2005 Neuroscience 135:247-261).\nStriatal tissue was homogenized in 10 volumes of ice cold 25 mM HEPES buffer, pH 7.4, which contained 1 mM EGTA, 100 mM sucrose, 50 μg/ml leupeptin, 0.04 mM PMSF, 2 μg/ml soybean trypsin inhibitor and 0.2% 2-mercaptoethanol. The homogenates were centrifuged at 800×g for 5 minutes and the supernatants were centrifuged at 49,000×g for 20 minutes.\nThe resultant striatal membrane preparation (200 μg) was admixed and maintained (incubated) at 30° C. for 5 minutes in reaction buffer as above that additionally contained 1 mM MgCl2 and 0.5 nM [^35S]GTPγS (0.1 μCi/assay, PerkinElmer Life and Analytical Sciences) in a total volume of 250 μl and continued for 5 minutes in the absence or presence of 0.1-10 μM of an assayed compound of interest. The reaction was terminated by dilution with 750 μl of ice-cold reaction buffer that contained 20 mM MgCl2 and 1 mM EGTA and immediate centrifugation at 16,000×g for 5 minutes.\nThe resulting pellet was solubilized by sonicating for 10 seconds in 0.5 ml of immunoprecipitation buffer containing 0.5% digitonin, 0.2% sodium cholate and 0.5% NP-40. Normal rabbit serum (1 μl) was added to 1 ml of lysate and incubated at 25° C. for 30 minutes. Nonspecific immune complexes were removed by incubation with 25 μl of protein A/G-conjugated agarose beads at 25° C. for 30 minutes followed by centrifugation at 5,000×g at 4° C. for 5 minutes. […]\nThe immunocomplexes so formed were collected by incubation at 25° C. for 30 minutes with 40 μl of agarose-conjugated protein A/G beads and centrifugation at 5,000×g at 4° C. for 5 minutes. […] The radioactivity in the suspension was determined by liquid scintillation spectrometry. […]"}
{"smiles": "O=S(=O)(c1ccc(F)cc1)N1CCOC12CCN(CC1CC1)CC2", "note": "[F-C0134]", "values": [{"measurement": "MOR agonist activity, [35S]GTPγS binding to Gαo", "setting": "0.1 μM compound, striatal membranes", "value": 290.6, "unit": "%"}, {"measurement": "MOR agonist activity, [35S]GTPγS binding to Gαo", "setting": "1 μM compound + BFNA (1 μM β-funaltrexamine)", "value": 66.6, "unit": "%"}, {"measurement": "MOR agonist activity, [35S]GTPγS binding to Gαo", "setting": "1 μM compound, striatal membranes", "value": 378.9, "unit": "%"}]}
